Results: patent publication US10093660B2, “Sulfoximine substituted quinazolines for pharmaceutical compositions” (EVOTEC INTERNATIONAL GMBH, priority 2013, dated 2018)

Chains of the proteins cited; added tags and fusions are not shown. A line that says so, or that is headed by a name, gives the form on record, which may keep a tag or linker.
UniProt Q9BUB5, with tags, fused parts or gaps limits assumed: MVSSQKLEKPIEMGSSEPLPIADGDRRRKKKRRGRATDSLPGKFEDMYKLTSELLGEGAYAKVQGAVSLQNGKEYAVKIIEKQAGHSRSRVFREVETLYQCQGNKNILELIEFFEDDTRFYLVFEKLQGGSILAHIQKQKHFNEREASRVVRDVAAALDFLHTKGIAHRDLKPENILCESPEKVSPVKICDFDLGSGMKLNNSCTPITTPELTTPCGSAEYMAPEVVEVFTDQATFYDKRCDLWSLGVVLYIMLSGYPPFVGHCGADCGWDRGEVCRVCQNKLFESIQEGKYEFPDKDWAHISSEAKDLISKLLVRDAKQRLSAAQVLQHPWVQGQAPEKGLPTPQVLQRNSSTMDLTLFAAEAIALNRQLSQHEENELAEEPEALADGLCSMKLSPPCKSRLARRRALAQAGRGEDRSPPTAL
UniProt Q9HBH9, whole entry: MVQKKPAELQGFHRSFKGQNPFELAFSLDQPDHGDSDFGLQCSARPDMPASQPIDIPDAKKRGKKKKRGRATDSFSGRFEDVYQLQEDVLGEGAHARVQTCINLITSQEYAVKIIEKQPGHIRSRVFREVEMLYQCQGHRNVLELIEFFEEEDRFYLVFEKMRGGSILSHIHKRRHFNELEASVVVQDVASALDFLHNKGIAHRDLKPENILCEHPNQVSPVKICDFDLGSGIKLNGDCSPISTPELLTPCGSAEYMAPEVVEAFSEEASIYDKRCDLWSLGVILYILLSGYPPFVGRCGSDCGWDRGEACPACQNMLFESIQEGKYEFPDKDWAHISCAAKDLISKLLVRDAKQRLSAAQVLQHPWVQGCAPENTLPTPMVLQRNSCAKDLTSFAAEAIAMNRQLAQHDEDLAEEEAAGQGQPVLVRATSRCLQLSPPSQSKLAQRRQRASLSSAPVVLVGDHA

Experiments:
MNK1a = MNK1a (Homo sapiens (Human), UniProt Q9BUB5); test: MNK1 in vitro kinase assay (Assay 3), Z'-LYTE; format: biochemical
MNK2a = MNK2a (Homo sapiens (Human), UniProt Q9HBH9); test: MNK2a in vitro kinase assay (Assay 2), ADP-Glo; format: biochemical; details: read-out: MNK2 IC50

IC50 (MNK1a; read-out: MNK1 IC50) | Structure (SMILES) | IC50 (MNK2a) | MNK1 % INH (MNK1a; compound concentration of 1 μM)
0.061 µM | Cc1cc(N=S2(=O)CCCC2)cc2ncnc(Nc3cccnc3O[C@@H]3COC[C@H]3O)c12 |  | 
 | Cc1cc(N=S2(=O)CCCC2)cc2ncnc(Nc3ccc(F)cc3O[C@@H]3COC[C@H]3O)c12 | 0.004 µM | 95%
